A short description of data set [1]: Human skin ex vivo: flux through skin and dermis concentration (Franz cells). Conditions: PG/H2O cream 1 mg/mL. It is filed as in vitro ADME. On the procedure: Flux through skin and dermis concentration were measured during 6-24 h (ng/cm^2/h) after disposition of the test compound 2.7 mM in PG/H2O cream 1 mg/mL. Human dermatomed skin (frozen), 350-500 m thick were used in diffusion cells system Franz cells 1.76 cm^2 maintained at 32±1° C. after equilibration. Skin integrity was confirmed by TEWL<20 g/m^2/h. 3 donors were used for each test. The compound was formulated in modified aqueous British pharmacopoeia cream pH6 PG 14% and applied 5 mg/cm^2 by weighing. Receptor fluid containing 4% BSA in PBS 10 mM was maintained under agitation and was sampled along with dermis sampled at 6 h and 24 h after exposure. 5 Strips were used to remove carefully the excess of formulation and were not dosed.

Data set [2] has as its system IL-6 induced p-STAT3Y705 in skin. The data set can be described thus: In vivo pharmacodynamy model: IL-6 induced Phospho-STAT3, topical. Also noted: species or system BALB/c ByJ Rj mice. The note with it: topical 1 mM, vehicle PG/EtOH 3/7.

Consider 1 molecule from patent US12606559B2, “JAK inhibitor compounds, methods for synthesizing same and use thereof” (GALDERMA HOLDING SA, priority 2020, dated 2026).

With `N#CC[C@H](C1CCCC1)n1cc(-c2ncnc3[nH]ccc23)cn1` [Ruxolitinib, reference compound], the dermis concentration in data set [1] was found to be 1.9 µM. In addition, the “PD/IL6 mouse top @1 mM % inh vs vehicle” value in data set [2] stood at 60%.
